Entries after “also recorded” stand apart in the source; their conditions may differ.
Tests used:
[1] = tested on: IKr of cardiac myocytes; details: nM concentrations; cited from earlier work
[2] = biological target: HERG (Homo sapiens, UniProt Q12809); assay: HERG current in Xenopus oocytes injected with HERG cRNA, two-microelectrode voltage clamp; details: 1 μM, oocytes incubated up to 4 hours

Amino acid sequences for entries named in this document (tags omitted). A change or cut given only in a name is not applied to a line headed by its entry.
UniProt Q12809: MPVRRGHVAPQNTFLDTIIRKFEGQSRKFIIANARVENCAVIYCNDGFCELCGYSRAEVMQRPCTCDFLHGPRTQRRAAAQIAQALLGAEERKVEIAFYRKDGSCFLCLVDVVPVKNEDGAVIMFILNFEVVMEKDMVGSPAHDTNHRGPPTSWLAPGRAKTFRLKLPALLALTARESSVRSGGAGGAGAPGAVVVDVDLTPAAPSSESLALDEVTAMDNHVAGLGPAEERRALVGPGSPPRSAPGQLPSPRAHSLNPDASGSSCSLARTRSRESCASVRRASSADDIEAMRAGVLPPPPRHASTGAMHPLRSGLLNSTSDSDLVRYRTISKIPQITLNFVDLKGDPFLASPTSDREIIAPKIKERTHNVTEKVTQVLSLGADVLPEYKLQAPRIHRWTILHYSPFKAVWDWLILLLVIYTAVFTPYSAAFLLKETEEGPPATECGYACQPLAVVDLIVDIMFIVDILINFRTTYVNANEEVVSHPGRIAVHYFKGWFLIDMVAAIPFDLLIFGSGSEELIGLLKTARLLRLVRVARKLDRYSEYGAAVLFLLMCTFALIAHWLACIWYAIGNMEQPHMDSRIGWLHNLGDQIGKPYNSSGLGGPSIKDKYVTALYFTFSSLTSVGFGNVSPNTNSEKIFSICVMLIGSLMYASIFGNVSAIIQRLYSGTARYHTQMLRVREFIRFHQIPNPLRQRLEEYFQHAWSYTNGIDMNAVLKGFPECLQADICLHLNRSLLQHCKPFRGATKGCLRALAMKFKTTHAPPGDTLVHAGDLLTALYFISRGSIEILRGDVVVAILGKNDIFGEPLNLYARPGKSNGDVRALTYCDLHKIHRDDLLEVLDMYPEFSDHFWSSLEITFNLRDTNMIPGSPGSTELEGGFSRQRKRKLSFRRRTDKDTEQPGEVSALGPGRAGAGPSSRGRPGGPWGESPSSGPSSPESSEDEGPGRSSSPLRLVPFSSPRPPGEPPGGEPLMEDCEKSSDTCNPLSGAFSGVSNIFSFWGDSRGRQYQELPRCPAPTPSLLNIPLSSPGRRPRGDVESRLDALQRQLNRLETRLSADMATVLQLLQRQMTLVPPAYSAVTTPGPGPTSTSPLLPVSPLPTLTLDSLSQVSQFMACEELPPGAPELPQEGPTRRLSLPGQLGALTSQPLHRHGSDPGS

CS(=O)(=O)Nc1ccc2c(c1)[C@H](O)CC1(CCN([C@@H]3CCc4cc(C#N)ccc4C3)CC1)O2 [MK-499]
block of IKr [1]: blocked | block of HERG current by methanesulfonanilides [2]: neither E-4031 nor MK-499 at a concentration of 1 μM blocked HERG current; also recorded: not blocked; also recorded: (1 μM - no effect)
